Measured values taken from US20030022283A1.

The chains behind the UniProt entries cited, without tags or fusion partners. Where a name states a change or a piece, a line headed by the entry shows the natural chain unless it says otherwise. A line that says so, or that is headed by a name, gives the form on record, which may keep a tag or linker.
UniProt Q15761: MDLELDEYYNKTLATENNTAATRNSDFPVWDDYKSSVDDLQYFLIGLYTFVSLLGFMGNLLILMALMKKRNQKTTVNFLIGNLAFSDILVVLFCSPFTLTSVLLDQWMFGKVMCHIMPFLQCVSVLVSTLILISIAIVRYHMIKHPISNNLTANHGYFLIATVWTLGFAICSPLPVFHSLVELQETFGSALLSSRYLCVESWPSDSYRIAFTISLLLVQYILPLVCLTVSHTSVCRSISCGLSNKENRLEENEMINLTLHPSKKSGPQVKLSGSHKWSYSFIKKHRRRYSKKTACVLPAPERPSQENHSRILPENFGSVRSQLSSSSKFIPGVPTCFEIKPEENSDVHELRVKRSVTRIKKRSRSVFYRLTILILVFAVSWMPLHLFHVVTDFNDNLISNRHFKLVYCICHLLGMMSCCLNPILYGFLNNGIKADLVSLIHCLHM
UniProt Q9ERC0, entry or part of it limits assumed, form in doubt: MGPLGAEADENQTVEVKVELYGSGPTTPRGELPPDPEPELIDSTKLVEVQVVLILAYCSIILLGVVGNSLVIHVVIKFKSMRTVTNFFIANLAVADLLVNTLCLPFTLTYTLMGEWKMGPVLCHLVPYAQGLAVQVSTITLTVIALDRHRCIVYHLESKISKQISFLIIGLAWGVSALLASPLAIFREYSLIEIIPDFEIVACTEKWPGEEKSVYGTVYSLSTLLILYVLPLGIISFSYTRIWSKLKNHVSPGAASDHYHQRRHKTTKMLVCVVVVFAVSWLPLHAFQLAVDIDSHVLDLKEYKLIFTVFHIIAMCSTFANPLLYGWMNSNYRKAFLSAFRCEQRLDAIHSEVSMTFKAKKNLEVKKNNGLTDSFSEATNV
UniProt P21555, whole entry: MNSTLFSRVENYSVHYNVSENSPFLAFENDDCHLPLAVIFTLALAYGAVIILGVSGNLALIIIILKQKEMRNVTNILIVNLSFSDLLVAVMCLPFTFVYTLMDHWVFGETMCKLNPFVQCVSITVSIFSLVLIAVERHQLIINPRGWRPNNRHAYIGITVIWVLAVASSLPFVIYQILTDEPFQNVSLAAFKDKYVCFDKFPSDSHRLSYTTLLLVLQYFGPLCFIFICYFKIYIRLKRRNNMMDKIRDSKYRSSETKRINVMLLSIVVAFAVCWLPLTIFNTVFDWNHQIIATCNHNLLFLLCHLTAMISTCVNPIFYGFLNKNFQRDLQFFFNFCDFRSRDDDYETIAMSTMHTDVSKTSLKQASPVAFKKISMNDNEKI
UniProt Q63447: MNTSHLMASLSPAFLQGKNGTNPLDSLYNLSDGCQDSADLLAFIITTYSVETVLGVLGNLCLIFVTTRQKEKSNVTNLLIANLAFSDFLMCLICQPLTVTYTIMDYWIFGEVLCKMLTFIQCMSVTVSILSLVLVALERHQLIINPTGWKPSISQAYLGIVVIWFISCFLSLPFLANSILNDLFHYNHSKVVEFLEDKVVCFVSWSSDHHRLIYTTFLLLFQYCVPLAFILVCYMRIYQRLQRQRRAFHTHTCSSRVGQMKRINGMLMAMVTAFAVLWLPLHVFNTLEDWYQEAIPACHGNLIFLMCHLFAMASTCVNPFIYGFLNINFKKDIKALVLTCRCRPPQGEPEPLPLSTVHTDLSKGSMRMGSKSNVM

How the values were obtained:
[1] = target: Human NPY Y5 receptor (human) (UniProt Q15761); experiment: competition with [125I]PYY, membranes of transiently transfected cells
[2] = target: T1, Rat NPY Y5 receptor, Y861 clone (rat) (UniProt Q63634); experiment: competition with [125I]PYY, rat Y5 Y861 clone
T1 sequence: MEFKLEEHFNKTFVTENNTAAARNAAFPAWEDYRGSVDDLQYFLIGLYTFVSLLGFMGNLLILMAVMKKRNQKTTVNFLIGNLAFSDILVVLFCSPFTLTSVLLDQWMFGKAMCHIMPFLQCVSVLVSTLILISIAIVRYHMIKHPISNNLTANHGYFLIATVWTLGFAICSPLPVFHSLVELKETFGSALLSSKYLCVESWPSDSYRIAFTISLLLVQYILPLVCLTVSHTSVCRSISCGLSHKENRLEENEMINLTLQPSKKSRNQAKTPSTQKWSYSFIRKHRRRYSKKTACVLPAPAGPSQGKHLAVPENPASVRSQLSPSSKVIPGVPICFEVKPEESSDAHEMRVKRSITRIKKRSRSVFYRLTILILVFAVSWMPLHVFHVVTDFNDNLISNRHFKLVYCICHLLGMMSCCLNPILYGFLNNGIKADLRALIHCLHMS

[3] = target: Rat NPY Y5 receptor, Y555 clone (rat) (UniProt Q63634); experiment: competition with [125I]PYY, membranes of transiently transfected COS-7 cells
[4] = target: Rat NPY Y5 receptor, 6B clone (Y217.24.13.6B) (rat) (UniProt Q63634); experiment: as above
[5] = target: Rat NPY Y2 receptor (clone) (rat) (UniProt Q9ERC0); experiment: competition with [125I]PYY, rat Y2 clone
[6] = target: Rat NPY Y1 receptor (clone) (rat) (UniProt P21555); experiment: competition with [125I]PYY, rat Y1 clone
[7] = target: T1, Rat NPY Y5 receptor, Y861 clone (rat); experiment: competition with [125I]PYY, membranes of stably transfected 293S cells
[8] = target: Human NPY Y5 receptor (human) (UniProt Q15761); experiment: competition with [125I]PYY, membranes of stably transfected 293 cells
[9] = target: T1, Rat NPY Y5 receptor, Y861 clone (rat); experiment: cell-based or functional assay
[10] = target: Human NPY Y5 receptor (human) (UniProt Q15761); experiment: cell-based or functional assay
[11] = target: Rat Y4/PP1 receptor (clone) (rat) (UniProt Q63447); experiment: competition with rat [125I]PP, rat Y4/PP1 clone

Substance | Ki [1] [nM] | IC50 [2] [nM] | IC50 [3] [nM] | Ki [4] [nM] | IC50 [5] [nM] | IC50 [6] [nM] | Ki [7] [nM] | Ki [8] [nM] | EC50, forskolin-stimulated adenylate cyclase (cAMP radioimmunoassay), stably transfected 293S cells [9] [nM] | EC50, forskolin-stimulated adenylate cyclase (cAMP radioimmunoassay), stably transfected 293 cells [10] [nM] | IC50 [11] [nM]
porcine (3-36)NPY (from UniProt P01304 12-45) (peptide) | 10.4 | 2.2 | 3.6 | 1.9 | 0.67 | 45 |  |  |  |  | 
rat (13-36)NPY (as printed in Table 1) (from UniProt P07808 42-65) (peptide) |  |  | 73 | 11 |  |  |  |  |  |  | 
rat/human (Leu31Pro34)(3-36)NPY (from UniProt P01303 31-64) (peptide) |  | 3.4 |  |  | 154 | 44 | 2.9 | 3.1 | 31 | 23 | 
porcine (18-36)NPY (from UniProt P01304 27-45) (peptide) |  | 326 | 303 | 194 |  |  | 61 |  |  |  | 159
(3-36)PYY (species not stated, Table 2) (peptide) |  |  |  |  |  |  |  | 4.5 |  |  | 
